Wnt act = activates Wnt/beta-catenin signaling in a reporter cell assay | activation, % at 9.35 µM | activator, plate reader | 300,000 tested, 1.2% active; in the data active = activation above about 30%, passing the limit was not always enough; inconclusive = no clear call, values can overlap the other calls;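 note: 0% = neutral control wells and 100% = positive control wells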
miR-122 sensor = miR-122 inhibition in Huh7 cells | activation (reporter increase), % at 12.5 µM | AID 602342 | Huh7 miR-122 Renilla luciferase sensor, 48 h; neutral wells = 0, positive control = 100 | 340,000 tested, 0.3% active;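 active = mean replicate activation score at least 90 and every replicate individually at or above 90; inconclusive = only one of the two criteria met; inactive = neither criterion met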;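 note: higher luciferase means less miR-122 activity so hits act as miR-122 inhibitors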
Yeast UUG start = alters start codon recognition fidelity in yeast | S. cerevisiae UUG-firefly luciferase reporter, luminescence/redox ratio | activity score, % at 18.7 µM | hit rate 0.13% among 350,000 | AID 602363;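 active means replicate mean at a twofold rise or more, about +100% in these data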;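 further: firefly luciferase made from a UUG start codon reports start codon fidelity; reporter light over untreated wells divided by growth signal over untreated wells; some hits fall short of that in this replicate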
TRPM1 prom inh = MITF TRPM1 promoter inhibition in SK-MEL-5 cells; SK-MEL-5 TRPM1 promoter luciferase, 24 h; inhibition, % at 12.5 µM; 330,000 tested, 0.83% active; AID 488899;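 active = mean inhibition across replicates of 60% or more, whatever share of single replicates reaches that level; inconclusive = some that reach 60%, reason not given; inactive = mean inhibition across replicates below 60%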
PGC1a acetyl inh = lowers PGC1a acetylation signal in U2OS cells. AlphaScreen anti-acetyl-lysine; with virally co-expressed GCN5 acetyltransferase. inhibition, % at 15.6 µM. 350,000 tested, 0.17% active. AID 651687;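 active = every replicate shows inhibition of at least 40%; inconclusive = mean inhibition at least 40% but some replicate below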;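 note: 0% = neutral control wells and 100% = positive control wells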
MITF TRPM1 HTS = increases MITF-driven TRPM1 promoter luciferase signal. AID 588334. 300,000 tested, 0.75% active. activation, % at 12.5 µM. SK-MEL-5 TRPM1-promoter luciferase, 24 h; % of positive control, neutral wells = 0;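 active = mean activation of at least 80% with every replicate also reaching 80%; inconclusive = mean reaches 80% but some replicate falls short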;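 note: 0% = neutral control wells and 100% = parthenolide positive control wells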
An asterisk follows results filed as active; ? = inconclusive; . = no result; [ ] = another dose, or the depositor's remark. Rows were chosen to be rich in hits. Some 2.1% of all compounds tested hit in one or more screens of this group.

Every second line gives: Wnt act, miR-122 sensor, Yeast UUG start, TRPM1 prom inh, PGC1a acetyl inh, MITF TRPM1 HTS
> N/C(=N\OC(=O)C12CC3CC(CC(C3)C1)C2)c1ccccn1
 : ., -2, -18, -98, -1, 98*
> COC(=O)c1c(-c2ccc(OC)cc2)sc2cc3c(cc12)OCO3
 : 33*, 7, -3, -83, -1, 92*
> COC(=O)c1c(-c2ccc(N(C)C)cc2)sc2ccc(OC)cc12
 : 20, -4, -1, -79, 1, 79
> C=CCn1c(-c2ccc(Cl)cc2)c[nH]c1=S
 : 10, -2, -27, 4, 0, 0
> C=CCn1c(-c2ccccc2)c[nH]c1=S
 : 43*, 1, 6, -63, -3, 65
> C/C=C/c1ccc2c(c1)O[C@@H](CN(C)C(=O)c1ccc(F)cc1)[C@H](C)CN([C@H](C)CO)S2(=O)=O
 : ., 6[16.7 µM], 25, ., -5, .
> Cc1nc([N+](=O)[O-])c(Br)n1CC(=O)c1ccc(Br)cc1
 : -8, -24, -25, 32, 64*, .
> Cc1nc([N+](=O)[O-])c(Br)n1CC(=O)c1ccccc1
 : ., 0, ., -3, -8, 3
> O=C(C[C@@H]1CC[C@H]2[C@@H](COC[C@H](O)CN2C(=O)Nc2ccc(Cl)c(Cl)c2)O1)NCc1ccc(F)cc1
 : ., -1[16.7 µM], 12, ., 3, .
> Oc1sc(C=Nc2ccc(F)cc2)c2ccccc12
 : 42*, -3, -15, -33, -8, 29
> Oc1sc(C=Nc2ccccc2)c2ccccc12
 : 58*, 0, -2, -45, -11, 40
> Cc1cccc(CN(C)C[C@@H]2OCc3cn(nn3)CCCC(=O)N([C@H](C)CO)C[C@H]2C)c1
 : ., -1[16.7 µM], 7, ., 4, .
> O=C(Nc1ccc(Cl)cn1)c1ccc([N+](=O)[O-])o1
 : 54*, ., ., 34, -24, -31
> O=C(Nc1c(Cl)ccc2nsnc12)c1ccc(Br)o1
 : -3, ., ., ., ., .
> Cc1c(Cl)c([N+](=O)[O-])nn1Cc1ccc(C(=O)Nc2ccc(Cl)cn2)o1
 : ., 1, -18, 1, 1, -1
> O=C(Nc1c(Cl)ccc2nsnc12)c1ccc([N+](=O)[O-])o1
 : -1, -8, -19, 89*, -74, -89
> C[C@@H]1CN([C@@H](C)CO)S(=O)(=O)c2ccc(C3=CCCC3)cc2O[C@@H]1CN(C)S(=O)(=O)c1cn(C)cn1
 : ., 37[16.7 µM], -9, ., 2, .
> CC(C)(CO)CNc1ccn2nccc2n1
 : -1, 3, -22, ., 43*, .
> Cc1nn(-c2ccc(Br)cc2)c(=O)c2ccccc12
 : 42*, ., -8, -14, ., 22
> O=C(Nc1ccccc1)NC1CCCCCCC1
 : 8, 13, -4, ., -1, .

2 records picked at random from the list so far, as already listed:
Every second line gives: Wnt act, miR-122 sensor, Yeast UUG start, TRPM1 prom inh, PGC1a acetyl inh, MITF TRPM1 HTS
> O=C(Nc1ccccc1)NC1CCCCCCC1
 : 8, 13, -4, ., -1, .
> Cc1c(Cl)c([N+](=O)[O-])nn1Cc1ccc(C(=O)Nc2ccc(Cl)cn2)o1
 : ., 1, -18, 1, 1, -1

Additional records:
Every second line gives: Wnt act, miR-122 sensor, Yeast UUG start, TRPM1 prom inh, PGC1a acetyl inh, MITF TRPM1 HTS
> COc1ccc(NC(=O)C(=S)NC2CCCCC2)cc1
 : 39*, -7, -9, -69, -14, 69
> O=C(Nc1ccc(Br)cc1)NC1CCCCCCC1
 : 47*, 1, -8, -84, -1, ?
> CCc1ccc(NC(=O)C2CCCN2C(=O)NC2CCCCC2)cc1 (stereo not given)
 : 1, -5, -12, 11, 2, -9
> COc1ccc(NC(=S)NC(=O)C2CCC2)cc1
 : 38*, ., -20, -30, ., 31
> COC(=O)c1ccc(NC(=S)NC(=O)C2CCC2)cc1
 : 3, 1, -30, -10, 1, 11
> COc1ccc(OC)c(NC(=O)C(=S)NC2CCCCC2)c1
 : -2, ., -11, 2, 3, -5
> CCc1ccc(NC(=O)C(=S)NC2CCCCC2)cc1
 : -4, -7, -26, -110, -9, 119*
> COCCNC(=O)C[C@H]1CC[C@@H]2[C@H](COc3ccc(NC(=O)c4cc(C)on4)cc3C(=O)N2C)O1
 : ., 28[16.7 µM], -23, ., 6, .
> Cc1cccc(-c2ccc([C@H]3[C@H](CO)N4C(=O)CN(S(=O)(=O)c5cccc(F)c5)C[C@@H]34)cc2)c1
 : ., ., ., ., -10, .
> CC(C)(C)NS(=O)(=O)c1ccc(NC(=S)NC(=O)C2CC2)cc1
 : 0, 196*, -4, 6, -5, -5
> CCOc1ccc(NC(=O)C(=S)NC2CCCCC2)cc1
 : -1, ., ., -133, 0, 136*
> CCc1cccc(NC(=O)NC2CCCCC2)c1
 : ., 63, -6, -13, 10, 7
> CCOc1ccc(NC(=O)NC2CCCCCCC2)cc1
 : 0, 0, -6, -76, 8, 77
> O=C(Cc1ccc(O)cc1)NC1CCCCCC1
 : 16, -2, -4, -80, 7, 90*
> CC(C)(C)NS(=O)(=O)c1ccc(NC(=O)C2CCCCC2)cc1
 : -1, -6, 2, 6, -18, -2

Look-ups from the results shown:
Under MITF TRPM1 HTS, CCOc1ccc(NC(=O)NC2CCCCCCC2)cc1 is listed with 77
Under Yeast UUG start, COCCNC(=O)C[C@H]1CC[C@@H]2[C@H](COc3ccc(NC(=O)c4cc(C)on4)cc3C(=O)N2C)O1 is listed with -23

Compound activity as filed in PubChem.
